Source: ChEMBL document CHEMBL2034871, “First-in-class, dual-action, 3,5-disubstituted indole derivatives having human nitric oxide synthase (nNOS) and norepinephrine reuptake inhibitory (NERI) activity for the treatment of neuropathic pain” (J Med Chem, 2012)
Blank lines part the entries; values can stand above or below the compound they belong to.

The chains behind the UniProt entries cited, without tags or fusion partners.
UniProt P29475, whole entry: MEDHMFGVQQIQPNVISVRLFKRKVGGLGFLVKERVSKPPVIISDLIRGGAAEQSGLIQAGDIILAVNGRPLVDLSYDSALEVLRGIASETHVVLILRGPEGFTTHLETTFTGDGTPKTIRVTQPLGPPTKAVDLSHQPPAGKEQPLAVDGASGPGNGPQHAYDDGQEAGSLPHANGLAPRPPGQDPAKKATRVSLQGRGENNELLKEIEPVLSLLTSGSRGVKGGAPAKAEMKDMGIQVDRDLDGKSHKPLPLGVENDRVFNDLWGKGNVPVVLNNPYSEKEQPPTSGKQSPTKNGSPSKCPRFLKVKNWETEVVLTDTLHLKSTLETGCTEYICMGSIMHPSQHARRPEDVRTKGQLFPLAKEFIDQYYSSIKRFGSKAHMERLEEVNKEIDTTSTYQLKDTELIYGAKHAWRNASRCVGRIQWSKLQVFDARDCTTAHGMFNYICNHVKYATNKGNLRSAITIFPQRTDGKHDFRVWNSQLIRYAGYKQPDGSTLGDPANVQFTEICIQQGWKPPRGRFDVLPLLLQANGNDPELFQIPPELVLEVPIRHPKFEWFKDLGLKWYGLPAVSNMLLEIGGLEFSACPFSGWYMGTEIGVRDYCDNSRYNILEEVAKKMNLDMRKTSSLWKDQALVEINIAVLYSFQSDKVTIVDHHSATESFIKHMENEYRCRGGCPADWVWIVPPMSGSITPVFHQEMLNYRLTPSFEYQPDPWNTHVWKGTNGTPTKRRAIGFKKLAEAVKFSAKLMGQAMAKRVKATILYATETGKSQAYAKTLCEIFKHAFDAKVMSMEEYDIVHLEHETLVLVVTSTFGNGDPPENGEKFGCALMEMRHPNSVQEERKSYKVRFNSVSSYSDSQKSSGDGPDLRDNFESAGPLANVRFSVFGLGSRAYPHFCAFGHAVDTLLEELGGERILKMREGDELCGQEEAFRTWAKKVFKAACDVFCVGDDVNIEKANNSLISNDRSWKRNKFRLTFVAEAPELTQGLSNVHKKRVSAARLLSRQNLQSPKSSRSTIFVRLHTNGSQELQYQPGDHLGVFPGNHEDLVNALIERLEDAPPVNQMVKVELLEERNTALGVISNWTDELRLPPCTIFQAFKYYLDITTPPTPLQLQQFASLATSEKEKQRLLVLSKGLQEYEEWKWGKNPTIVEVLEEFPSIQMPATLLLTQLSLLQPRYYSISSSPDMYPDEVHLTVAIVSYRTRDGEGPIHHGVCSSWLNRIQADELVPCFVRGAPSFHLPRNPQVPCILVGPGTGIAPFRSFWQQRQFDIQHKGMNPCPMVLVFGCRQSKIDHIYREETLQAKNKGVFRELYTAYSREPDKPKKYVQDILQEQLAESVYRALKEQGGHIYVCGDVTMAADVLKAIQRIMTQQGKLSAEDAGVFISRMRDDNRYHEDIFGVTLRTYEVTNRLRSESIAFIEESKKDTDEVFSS

Columns and labels:
Nitric oxide synthase 1 = Nitric oxide synthase 1 (Homo sapiens, UniProt P29475); experiment: Inhibition of human nNOS expressed in baculovirus-infected insect sf9 cells assessed as conversion of [3H]-L-arginine to [3H]-L-citrulline preincubated for 15 mins with compound measured after 45 mins by scintillation counting
Nitric oxide synthase 3 = target: T1, Nitric oxide synthase 3 (Homo sapiens, UniProt P29474); experiment: Inhibition of human eNOS expressed in baculovirus-infected insect sf9 cells assessed as conversion of [3H]-L-arginine to [3H]-L-citrulline preincubated for 15 mins with compound measured after 45 mins by scintillation counting
T1 sequence (P29474 whole entry): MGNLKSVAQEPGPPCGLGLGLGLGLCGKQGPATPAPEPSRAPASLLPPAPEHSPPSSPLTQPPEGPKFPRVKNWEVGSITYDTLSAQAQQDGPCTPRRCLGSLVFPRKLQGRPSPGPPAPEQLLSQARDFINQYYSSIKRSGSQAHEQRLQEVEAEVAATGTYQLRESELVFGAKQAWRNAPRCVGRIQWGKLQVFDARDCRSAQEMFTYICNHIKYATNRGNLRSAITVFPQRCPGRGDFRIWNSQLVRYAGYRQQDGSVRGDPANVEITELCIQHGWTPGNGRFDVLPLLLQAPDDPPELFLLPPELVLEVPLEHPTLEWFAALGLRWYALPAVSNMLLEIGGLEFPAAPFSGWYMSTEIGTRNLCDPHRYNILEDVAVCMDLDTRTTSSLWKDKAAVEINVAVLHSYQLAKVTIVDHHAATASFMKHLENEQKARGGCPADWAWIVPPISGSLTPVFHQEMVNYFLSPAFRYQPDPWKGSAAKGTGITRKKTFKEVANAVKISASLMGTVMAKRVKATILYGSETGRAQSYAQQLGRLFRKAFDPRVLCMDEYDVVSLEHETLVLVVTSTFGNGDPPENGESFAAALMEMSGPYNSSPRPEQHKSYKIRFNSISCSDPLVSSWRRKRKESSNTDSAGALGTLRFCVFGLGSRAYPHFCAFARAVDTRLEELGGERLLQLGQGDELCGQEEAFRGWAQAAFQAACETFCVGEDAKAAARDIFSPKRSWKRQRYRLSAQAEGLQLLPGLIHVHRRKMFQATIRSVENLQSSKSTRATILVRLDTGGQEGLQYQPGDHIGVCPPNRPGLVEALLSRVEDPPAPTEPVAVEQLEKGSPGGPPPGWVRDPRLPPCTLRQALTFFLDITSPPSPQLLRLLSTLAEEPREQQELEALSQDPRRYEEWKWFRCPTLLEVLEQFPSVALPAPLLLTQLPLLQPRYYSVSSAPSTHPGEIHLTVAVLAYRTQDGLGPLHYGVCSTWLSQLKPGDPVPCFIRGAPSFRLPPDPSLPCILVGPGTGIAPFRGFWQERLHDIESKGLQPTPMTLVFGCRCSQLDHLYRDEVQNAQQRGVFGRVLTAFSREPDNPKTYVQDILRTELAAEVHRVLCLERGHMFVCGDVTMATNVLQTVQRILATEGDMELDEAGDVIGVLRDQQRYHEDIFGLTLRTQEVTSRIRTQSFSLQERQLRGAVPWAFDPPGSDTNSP

Compound: CN[C@H]1CCC[C@@H](c2c[nH]c3ccc(NC(=N)c4cccs4)cc23)C1 (racemic)
IC50 (Nitric oxide synthase 1): 490 nM

Compound: CN[C@H]1CCC[C@H](c2c[nH]c3ccc(NC(=N)c4cccs4)cc23)C1 (racemic)
IC50 (Nitric oxide synthase 1): 300 nM

Second part, the compound after the results:

IC50 (Nitric oxide synthase 1): 730 nM
IC50 (Nitric oxide synthase 3): 32000 nM
Compound: CCN[C@H]1CCC[C@@H](c2c[nH]c3ccc(NC(=N)c4cccs4)cc23)C1 (racemic)

IC50 (Nitric oxide synthase 3): 19000 nM
Compound: CCN[C@H]1CC[C@@H](c2c[nH]c3ccc(NC(=N)c4cccs4)cc32)CC1

IC50 (Nitric oxide synthase 1): 200 nM
IC50 (Nitric oxide synthase 3): 11000 nM
Compound: CCN[C@H]1CCC[C@H](c2c[nH]c3ccc(NC(=N)c4cccs4)cc23)C1 (racemic)
